# In PMC9468336, “The choanoflagellate pore-forming lectin SaroL-1 punches holes in cancer cells by targeting the tumor-related glycosphingolipid Gb3” (Communications Biology, 2022):
# Molecular target: T1, hemolytic activity of SaroL-1 on rabbit erythrocytes (Salpingoeca rosetta, UniProt F2UID9)
# T1 sequence (F2UID9 1-329): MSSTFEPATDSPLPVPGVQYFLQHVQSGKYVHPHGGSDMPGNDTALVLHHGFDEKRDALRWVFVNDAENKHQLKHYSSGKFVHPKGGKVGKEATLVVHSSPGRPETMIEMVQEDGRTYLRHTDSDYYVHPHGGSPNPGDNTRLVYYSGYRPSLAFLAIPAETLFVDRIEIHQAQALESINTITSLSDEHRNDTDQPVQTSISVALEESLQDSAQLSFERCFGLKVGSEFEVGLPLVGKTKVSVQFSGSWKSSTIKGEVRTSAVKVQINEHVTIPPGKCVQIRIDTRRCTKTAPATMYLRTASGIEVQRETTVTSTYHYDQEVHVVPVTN
# Test: Inhibition of hemolytic activity (IHA) of SaroL-1 by carbohydrates
# Format: cell-based
# Settings: SaroL-1 217 nM pre-incubated with carbohydrate; read-out: IC50 of inhibition of hemolysis
# Description: Both HA and IHA assays were performed in U-shaped 96-well microtiter plates. In both cases, a control negative experiment was performed with Buffer A added to erythrocyte solution (2% final concentration), and the resulting value was subtracted from all data.
# IHA was performed in U-shaped 96-well microtiter plates. […] 4% rabbit erythrocytes were added to the mixture in a 1:1 ratio and incubated for 1–2 h at 37 °C. The samples were centrifuged, 2600 × g for 15 min at RT, and the absorbance of the supernatant was measured at 540 nm by a Tecan reader.
smiles,measurement,value
OC[C@H]1O[C@H](OCC2O[C@@H](O)[C@H](O)[C@@H](O)[C@@H]2O)[C@H](O)[C@@H](O)[C@H]1O (stereo partly shown) [melibiose],IC50,1500 µM
